Values quoted from earlier work, collected in patent publication US20050203105A1, “Composition and method for controlling alcohol-induced facial flushing in susceptible humans” (priority 2003, published 2005).

System: muscarinic receptors
Details: not given

Anticholinergic activity	Structure (SMILES)
++	CN(C)CC[C@@H](c1ccc(Cl)cc1)c1ccccn1 [Dexchlorpheniramine]
+++	CC(CN1c2ccccc2Sc2ccccc21)N(C)C (stereo not drawn) [Promethazine]
±	COc1ccc(CCN2CCC(Nc3nc4ccccc4n3Cc3ccc(F)cc3)CC2)cc1 [Astemizole]

Continued, compound first:

Structure (SMILES)	Anticholinergic activity
CN(C)CCC(c1ccc(Cl)cc1)c1ccccn1 (stereo not drawn) [Chlorpheniramine]	++
COc1ccc(CN(CCN(C)C)c2ccccn2)cc1 [Pyrilamine]	±

System: not given
Details: oral

Structure (SMILES)	duration of effects
COc1ccc(CCN2CCC(Nc3nc4ccccc4n3Cc3ccc(F)cc3)CC2)cc1 [Astemizole]	up to 24 hours
